For experiment [1], the target named is T1, ghrelin receptor F312A (Homo sapiens, UniProt Q92847, F312A).
T1 construct: HA signal peptide / HA tag (N); expressed in transfected cells; host or cells: HEK293
Briefly: HTRF saturation binding of ghrelin-A2, F312A. The settings on record: vs. WT. In general terms: In TR-FRET formats the signal depends on donor and acceptor labels being close together.

By UniProt entry, the sequences of proteins in these tests, tags left out.
UniProt Q92847, whole entry F312A: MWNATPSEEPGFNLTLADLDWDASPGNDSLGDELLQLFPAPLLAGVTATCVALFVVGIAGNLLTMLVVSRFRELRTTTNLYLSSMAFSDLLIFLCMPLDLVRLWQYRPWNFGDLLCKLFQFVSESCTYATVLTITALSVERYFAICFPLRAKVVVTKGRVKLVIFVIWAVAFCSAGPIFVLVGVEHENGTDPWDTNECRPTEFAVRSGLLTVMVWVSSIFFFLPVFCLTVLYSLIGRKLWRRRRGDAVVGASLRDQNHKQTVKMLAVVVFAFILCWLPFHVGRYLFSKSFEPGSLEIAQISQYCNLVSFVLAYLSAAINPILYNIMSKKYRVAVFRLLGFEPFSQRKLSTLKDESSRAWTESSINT
UniProt Q92847, whole entry F279A: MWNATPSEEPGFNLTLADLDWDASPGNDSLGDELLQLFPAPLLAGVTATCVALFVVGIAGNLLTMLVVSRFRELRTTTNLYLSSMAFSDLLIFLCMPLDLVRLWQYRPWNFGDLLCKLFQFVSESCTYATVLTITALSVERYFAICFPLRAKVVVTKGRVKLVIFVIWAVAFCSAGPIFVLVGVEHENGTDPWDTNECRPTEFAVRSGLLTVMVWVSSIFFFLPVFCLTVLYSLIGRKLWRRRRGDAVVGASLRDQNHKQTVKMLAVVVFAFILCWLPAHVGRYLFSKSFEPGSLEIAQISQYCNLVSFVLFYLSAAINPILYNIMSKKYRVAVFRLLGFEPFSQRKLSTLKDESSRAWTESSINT

For experiment [2], the target named is T2, ghrelin receptor F279A (Homo sapiens, UniProt Q92847, F279A).
T2 construct: HA signal peptide (printed also as HA-tagged) (N); expressed in transfected cells; host or cells: HEK293
Nature of the experiment: HTRF saturation binding of ghrelin-A2, F279A. The settings on record: vs. WT.

On to ghrelin, for which the “effect of mutation on binding” value in experiment [1] and in experiment [2] was “partly maintain the binding” each time.

The values above are taken from article PMC8379176, “Molecular recognition of an acyl-peptide hormone and activation of ghrelin receptor” (Nature Communications, 2021).
